Test results from PMC7801690, “Crystal structure of a thermophilic fungal cyanase and its implications on the catalytic mechanism for bioremediation” (Scientific Reports, 2021).

Tested on: N#CO
Experiment: purified protein
Settings: apparent Km; 0.05 to 3.0 mM potassium cyanate; bicarbonate-dependent

Substance | Km [µM] | kcat [s⁻¹] | kcat/Km [M⁻¹ s⁻¹]
Tl-Cyn (Thermomyces lanuginosus; A148V) | 200 ± 7 | 5720 | 2.93e+07
Tl-Cyn (Thermomyces lanuginosus; Y34A) | 400 ± 10 | – | 1.2e+08
Tl-Cyn (Thermomyces lanuginosus; E124D) | 210 ± 3 | 5840 | 2.79e+07
